{"sequences": {"note": "Sequences of proteins named here, by UniProt entry; tags and fusion partners are left off. Residues count along the entry.", "UniProt P02745, 23-245": "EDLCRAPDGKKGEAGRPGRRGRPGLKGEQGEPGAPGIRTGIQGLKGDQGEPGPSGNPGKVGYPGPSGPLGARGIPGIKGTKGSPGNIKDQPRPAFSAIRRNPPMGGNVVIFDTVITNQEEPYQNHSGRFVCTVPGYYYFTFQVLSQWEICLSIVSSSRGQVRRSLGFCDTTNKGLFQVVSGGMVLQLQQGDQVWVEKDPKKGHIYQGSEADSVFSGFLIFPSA", "UniProt P02746, 28-253": "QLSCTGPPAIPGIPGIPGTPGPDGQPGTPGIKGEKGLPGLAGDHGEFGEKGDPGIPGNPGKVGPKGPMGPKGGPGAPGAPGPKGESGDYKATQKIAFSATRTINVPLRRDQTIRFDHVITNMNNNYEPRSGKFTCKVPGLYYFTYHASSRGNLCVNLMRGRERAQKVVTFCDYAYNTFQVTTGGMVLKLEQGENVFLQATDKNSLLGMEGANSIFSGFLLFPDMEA", "UniProt P02747, 29-245": "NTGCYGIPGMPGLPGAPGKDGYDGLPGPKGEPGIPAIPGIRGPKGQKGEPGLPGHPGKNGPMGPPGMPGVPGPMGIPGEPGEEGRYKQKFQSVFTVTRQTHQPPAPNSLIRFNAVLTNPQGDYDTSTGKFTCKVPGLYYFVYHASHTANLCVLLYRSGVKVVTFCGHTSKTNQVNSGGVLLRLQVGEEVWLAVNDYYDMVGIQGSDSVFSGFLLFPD"}, "source": "paper PMC6512903", "biological_target": "EU-rituximab (MabThera, sourced and manufactured in Europe) (mouse | human)", "experiment": "ELISA"}
{"substance": "human C1q (from UniProt P02745;P02746;P02747) (complex)", "values": [{"measurement": "relative C1q-binding activity (by EC50), mean of batches", "value": 106, "unit": "%"}]}
